Test system: 2-phenyl-1,4-benzoquinone-induced writhing
Experiment: 2-phenyl-1,4-benzoquinone-induced writhing test in mice (analgesia)
Type: in vivo
Details: oral dose

SMILES: Cl.O.O=C1c2ccccc2COc2ccc(CCN3CCC4(CC3)C(=O)NCN4c3ccccc3)cc21
- ED50 (dosage which exhibits 50% inhibition of writhing): 8.4 mg/kg of body weight
